# According to patent US9416123B2, “Kinase modulators for the treatment of cancer” (Synovo GmbH, priority 2011, dated 2016):
# The chains behind the UniProt entries cited, without tags or fusion partners. A line that says so, or that is headed by a name, gives the form on record, which may keep a tag or linker.
# UniProt P00533, other isoform, or with tags, fused parts or gaps A750P/del 1-671/del 747-749 limits assumed: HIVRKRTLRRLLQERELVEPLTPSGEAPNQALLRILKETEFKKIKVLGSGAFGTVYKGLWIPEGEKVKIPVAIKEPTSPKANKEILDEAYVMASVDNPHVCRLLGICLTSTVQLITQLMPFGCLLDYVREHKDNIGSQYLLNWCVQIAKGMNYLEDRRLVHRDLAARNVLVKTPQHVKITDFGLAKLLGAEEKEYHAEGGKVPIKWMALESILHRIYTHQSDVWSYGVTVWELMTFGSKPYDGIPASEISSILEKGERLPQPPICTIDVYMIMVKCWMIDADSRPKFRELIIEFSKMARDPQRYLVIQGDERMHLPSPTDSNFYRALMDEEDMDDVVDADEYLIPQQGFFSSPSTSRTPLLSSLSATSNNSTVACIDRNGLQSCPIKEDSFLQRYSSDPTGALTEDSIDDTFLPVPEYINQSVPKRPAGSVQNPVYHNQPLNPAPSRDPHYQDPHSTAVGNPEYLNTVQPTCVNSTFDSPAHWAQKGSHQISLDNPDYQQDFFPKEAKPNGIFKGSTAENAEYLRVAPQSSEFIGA
# UniProt P00533, other isoform, or with tags, fused parts or gaps del 1-671/del 752-759 limits assumed: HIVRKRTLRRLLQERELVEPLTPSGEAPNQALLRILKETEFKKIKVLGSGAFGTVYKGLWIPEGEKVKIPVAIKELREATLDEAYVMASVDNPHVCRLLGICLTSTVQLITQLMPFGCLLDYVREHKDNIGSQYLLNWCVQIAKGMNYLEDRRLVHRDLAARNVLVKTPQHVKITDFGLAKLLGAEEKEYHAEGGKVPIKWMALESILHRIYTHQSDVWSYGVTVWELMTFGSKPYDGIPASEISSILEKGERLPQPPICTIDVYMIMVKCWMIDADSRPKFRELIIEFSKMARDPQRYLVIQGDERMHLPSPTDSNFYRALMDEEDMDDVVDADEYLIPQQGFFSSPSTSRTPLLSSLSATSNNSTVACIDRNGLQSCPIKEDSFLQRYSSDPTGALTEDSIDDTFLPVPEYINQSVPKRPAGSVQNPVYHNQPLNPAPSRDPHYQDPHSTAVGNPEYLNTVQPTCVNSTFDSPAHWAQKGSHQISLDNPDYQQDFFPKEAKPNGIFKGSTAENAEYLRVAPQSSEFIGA
# pIC50: −log10 of the molar value.
# Assays:
# EGF-R d747-749 A750P = EGF-R d747-749 A750P (Homo sapiens (Human), UniProt P00533, A750P/DEL747-749); assay: Kinase assay (33P FlashPlate) EGF-R d747-749 A750P; assay type: biochemical; conditions: Table 3
# EGF-R d752-759 = EGF-R d752-759 (Homo sapiens (Human), UniProt P00533, DEL752-759); assay: Kinase assay (33P FlashPlate) EGF-R d752-759; assay type: biochemical; conditions: Table 3
smiles,measurement,setting,value
Nc1c(-c2ccc(F)cc2)c(-c2ccncc2)nn1-c1c(Cl)cc(Cl)cc1Cl [Compound 6],pIC50,EGF-R d747-749 A750P,6.77
same,pIC50,EGF-R d752-759,7.04
